# Molecular target: T1, E. coli β clamp (Escherichia coli, UniProt P0A988)
# Sequences of proteins named here, by UniProt entry; tags and fusion partners are left off. A change or cut given only in a name is not applied to a line headed by its entry.
# UniProt P0A988: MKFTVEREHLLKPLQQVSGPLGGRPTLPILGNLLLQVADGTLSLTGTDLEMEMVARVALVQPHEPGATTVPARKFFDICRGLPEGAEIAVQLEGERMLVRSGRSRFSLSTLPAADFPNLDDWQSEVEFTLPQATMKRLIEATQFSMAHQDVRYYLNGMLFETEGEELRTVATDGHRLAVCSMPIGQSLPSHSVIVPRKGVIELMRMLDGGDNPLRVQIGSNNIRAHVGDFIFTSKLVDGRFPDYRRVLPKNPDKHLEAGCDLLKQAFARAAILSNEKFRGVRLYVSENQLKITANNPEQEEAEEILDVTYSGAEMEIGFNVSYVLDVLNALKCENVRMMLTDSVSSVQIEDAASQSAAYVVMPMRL
# T1 construct: made in house; host or cells: E. coli BL21 (β); P1 by solid-phase synthesis
# Experiment: SPR competition assay: inhibition of P1-β interaction by challenging peptides;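 also: SPR responses corrected for background, then fitted with a 1:1 Langmuir binding model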
# Settings: concentration of ligand that challenges 50% of the binding of natural peptide P1
substance,measurement,value
Ac R Q Cha N L diClF [Peptide P14-4],Ki (nM),insoluble

# Source: US9133240B2, “Compounds binding to the bacterial beta ring” (Centre National de la Recherche Scientifique, priority 2011, dated 2015)
